# Laboratory results taken from EP0528486A2 (MERCK & CO. INC., dated 1993).
# Target: farnesyl-protein transferase from bovine brain (bovine, UniProt P29702 2-375; P49355 1-437)
# Experiment: affinity chromatography on …-Affigel-10
binder,measurement,value
KSLTGCVIM (covalently bound to Affigel-10) [nonapeptide KSLTGCVIM],binding result,binds
